US10301344B2, “L-proline complex of sodium-glucose cotransporter 2 inhibitor, monohydrate and crystal form thereof” (Jiangsu Hengrui Medicine Co., Ltd., priority 2014, dated 2019)
Where two headings read alike, the source gives them in different places.

Columns and labels:
[1] = for effect of high humidity on stability: RH 75%, RH 90%; for purity as detected by HPLC, 40° C.: heating 40° C.; for purity as detected by HPLC, 60° C.: heating 60° C.; for purity as detected by HPLC, RH 75%: high humidity RH 75%; for purity as detected by HPLC, RH 90%: high humidity RH 90%; for purity as detected by HPLC, Lighting: lighting 4500 Lux
[2] = for stability of the crystal form on grinding, heating and pressing: grinded, heated and pressed
[3] = grinding treatment for 10 min in a mortar under nitrogen
[4] = heating treatment at 60° C. for 3 hours
[5] = pressing treatment, pressed to a slice

Substance | effect of high humidity on stability [1] | purity as detected by HPLC, 40° C. ([1]; day 0) [%] | purity as detected by HPLC, 40° C. ([1]; day 5) [%] | purity as detected by HPLC, 40° C. ([1]; day 10) [%] | purity as detected by HPLC, 60° C. ([1]; day 0) [%] | purity as detected by HPLC, 60° C. ([1]; day 5) [%] | purity as detected by HPLC, 60° C. ([1]; day 10) [%] | purity as detected by HPLC, RH 75% ([1]; day 0) [%] | purity as detected by HPLC, RH 75% ([1]; day 5) [%] | purity as detected by HPLC, RH 75% ([1]; day 10) [%] | purity as detected by HPLC, RH 90% ([1]; day 0) [%] | purity as detected by HPLC, RH 90% ([1]; day 5) [%] | purity as detected by HPLC, RH 90% ([1]; day 10) [%] | purity as detected by HPLC, Lighting ([1]; day 0) [%] | purity as detected by HPLC, Lighting ([1]; day 5) [%] | purity as detected by HPLC, Lighting ([1]; day 10) [%] | also measured
1,6-anhydro-1-C-{4-chloro-3-[(3-fluoro-4-ethoxyphenyl)methyl]phenyl}-5-C-(hydroxymethyl)-β-L-idopyranose L-proline [Amorphous] | does not have much effect | 99.68 | 99.65 | 99.62 | 99.68 | 99.67 | 99.56 | 99.68 | 99.66 | 99.65 | 99.68 | 99.66 | 99.64 | 99.68 | 99.60 | 99.55 | –
1,6-anhydro-1-C-{4-chloro-3-[(3-fluoro-4-ethoxyphenyl)methyl]phenyl}-5-C-(hydroxymethyl)-β-L-idopyranose L-proline [Crystal form A] | does not have much effect | 99.76 | 99.76 | 99.75 | 99.76 | 99.74 | 99.74 | 99.76 | 99.75 | 99.74 | 99.76 | 99.76 | 99.75 | 99.76 | 99.76 | 99.76 | stability of the crystal form on grinding, heating and pressing [2]: the crystal form was stable; stability of the crystal form on grinding, heating and pressing ([2]; listed as crystal form A): good stability; Crystal form after treatment [2, 3]: form A; DSC peak after treatment [2, 3]: 110.46 °C; Crystal form after treatment [2, 4]: form A; DSC peak after treatment [2, 4]: 110.64 °C; Crystal form after treatment [2, 5]: form A; DSC peak after treatment [2, 5]: 110.29 °C; stability under the conditions of lighting and high temperature ([1]; compared with the amorphous sample): significantly better than that of the amorphous sample; stability under the conditions of high temperature and high humidity ([1]; compared with the amorphous sample, summary statement): significantly better than that of the amorphous sample
